# Laboratory results: patent publication US20170107254A1, “Modified Antimicrobial Peptides” (priority 2014, published 2017)
# Tested on: human red blood cells (hRBC)
# Experiment: Haemolysis of human red blood cells
# Conditions: lipid alone at 200 μg/ml
structure (smiles),measurement,value
"CCCCCCCC(=O)O [Octanoic (C8), Octanoic]",% Haemolytic Activity at 3 h,35%
